# Values of other authors, collected in patent publication US20210069230A1, “SYNERGISTIC DRUG COMBINATIONS PREDICTED FROM GENOMIC FEATURES AND SINGLE-AGENT RESPONSE PROFILES” (THE BROAD INSTITUTE, INC., priority 2018, published 2021).
# Chains of the proteins cited; added tags and fusions are not shown.
# UniProt O35678, whole entry: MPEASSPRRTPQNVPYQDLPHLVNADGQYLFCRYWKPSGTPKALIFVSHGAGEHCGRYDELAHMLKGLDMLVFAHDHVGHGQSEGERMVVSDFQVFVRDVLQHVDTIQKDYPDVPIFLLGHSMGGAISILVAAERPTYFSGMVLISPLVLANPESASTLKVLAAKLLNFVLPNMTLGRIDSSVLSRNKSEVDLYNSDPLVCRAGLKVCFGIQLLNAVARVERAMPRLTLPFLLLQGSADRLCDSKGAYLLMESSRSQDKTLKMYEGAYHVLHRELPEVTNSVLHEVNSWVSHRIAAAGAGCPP
# Biological target: Monoacylglycerol lipase (MAGL) (Mus musculus, UniProt O35678)
# Conditions: dose of 4 mg/kg; cited from earlier work
smiles,measurement,value
"O=C(Oc1ccc([N+](=O)[O-])cc1)N1CCC(C(O)(c2ccc3c(c2)OCO3)c2ccc3c(c2)OCO3)CC1 [JZL184, 4-nitrophenyl 4-(dibenzo[d][1,3]dioxol-5-yl(hydroxy)methyl)piperidine-1-carboxylate]",MAGL inhibited,75%
